Experimental findings from US20230019690A1, “FORMULATIONS COMPRISING A MINERAL AND/OR A VITAMIN AND A POLYSACCHARIDE, COMPOSITIONS THEREOF AND USE THEREOF IN SUPPLEMENTING SAID MINERAL AND/OR VITAMIN” (ALESCO S.R.L., priority 2019, published 2023) are described below.

The series can be described thus: Permeation of Fe3+ through isolated rat intestine (Ussing-type cell). Type of series: in vitro ADME, male Wistar rats. As to conditions: cumulative percentage of Fe3+ permeated at the end of the experiment (4 h); iron 1.34 mg/mL. The procedure: For permeation studies, the intestinal mucosa was isolated from male Wistar rats weighing 250-300 g. After sacrificing the rat, the first 20 cm of the jejunum was immediately removed. The isolated intestine was cut into 1.5 cm strips, the lumen content was gently removed and mounted in a Ussing-type cell (0.78 cm^2 exposed surface) without removing the underlying muscle layer. 1 ml of phosphate buffer pH 6.8, 0.13 M, made isotonic by adding sodium chloride (PBS 6.8) was added to the apical side and 3 ml of a pH 7.4, 0.13 M, isotonic buffer solution (PB 7.4) was added to the basolateral side (acceptor medium). To ensure oxygenation and agitation, a mixture of 95% O2 and 5% CO2 was bubbled in each compartment. Ussing chambers were placed in a water bath at 37° C.
After 20 minutes of equilibration, the medium in each donor compartment was replaced with 1 ml of the suspension of the composition to be tested which had been previously treated to simulate its transit in the stomach. 0.2 g of pepsin were solubilised in 5 ml of an aqueous solution of HCI 0.1 M so as to simulate gastric digestion. […]
1 ml of sample was collected from the receiving compartment at 30-minute intervals for a total of 240 minutes and replaced with the same volume of fresh medium. The amount of Fe^3+ permeated was determined according to an analytical method. […]

In the case of “Iron (III) pyrophosphate [Iron pyrophosphate]”, the “% permeate” value was 0.21 ± 0.04%.
